This is an account of results in US20090036518A1, “PHARMACEUTICAL COMPOSITION CONTAINING FLAVONOIDS” (TAIPEI MEDICAL UNIVERSITY, priority 2005, published 2009).

Molecules are shown by their SMILES. A value given as a limit tells only on which side of the number the result lay.

The test deals with high affinity rolipram binding sites (HARBS) of the PDE4 (PDE4H). Put plainly: Assay II: replacement of [3H]-rolipram bound on particulate HARBS of whole brain. On the set-up: species or system guinea pig. The conditions noted are these: ratio of HARBS EC50 to PDE4 IC50. Here is the method: The binding experiments are carried on basis of the methods of Schneider et al and Zhao et al with a small modification. Under a protocol approved by the Animal Care and Use Committee of Taipei Medical University, five male guinea pigs (Hartley), weighing 500-600 g, are anesthetized. The whole brains taken therefrom are homogenized with in 10 volumes of cold medium (pH 6.5) containing 20 mM Bis-tris, 2 mM benzamidine, 2 mM EDTA, 50 mM sodium chloride, 0.1 mM phenylmethanesulfonyl fluoride (PMSF), and 1 mM dithiothreitol. At 4[…], the homogenate is centrifuged at 170 g for 15 min for removing blood vessels and connective tissues, and the supernatant thereof is then re-centrifuged at 40,000 g for 30 min for separating the particulates from the cytosol of cells.
The final concentration of [^3H]-rolipram is 2 nM. […] After incubation, the reaction is stopped by transferring the reaction vessel to a bath of crashed ice. Then the reaction mixture is filtered through a punched glass fiber filter (Whatman GF/B) placed in a mini funnel, which is adopted to a 1.5 ml of Eppendorff's tube for collecting the filtrate in the mini centrifuge at 1000 rpm (100 g) for 10 seconds. […] The Whatman GF/B filter is mixed with 2 ml of cocktail and counted by the β-scintillation counter (Backman, Fullerton, Calif., USA) for counting the radioactivity thereof.

For `COc1ccc(C2CC(=O)c3c(O)cc(O)cc3O2)cc1O` (stereo not shown) [Hesperetin], the “PDE4H/PDE4L ratio (EC50/IC50)” value is above 11.
